Data as given in US9422289B2, “Use of pteridine derivatives for the treatment of increased intracranial pressure, secondary ischemia, and disorders associated with an increased level of cytotoxic reactive oxygen species” (VASOPHARM GMBH, priority 2003, dated 2016).

Target: α2 (non-selective)
Assay: Radioligand binding, Cerep 802-1b

## COC(=O)[C@@H]1[C@H]2C[C@H]3c4[nH]c5ccccc5c4CCN3C[C@@H]2CC[C@@H]1O [yohimbine, reference compound]
  IC50: 74 nM
